This note sets out measurements from ChEMBL document CHEMBL4020815 (J Med Chem, 2017).

Protein sequences, listed by entry. Tags and fused reporters are not part of them. Lines headed by an entry give the natural chain unless they say otherwise; changes in a name come on top.
UniProt P31939: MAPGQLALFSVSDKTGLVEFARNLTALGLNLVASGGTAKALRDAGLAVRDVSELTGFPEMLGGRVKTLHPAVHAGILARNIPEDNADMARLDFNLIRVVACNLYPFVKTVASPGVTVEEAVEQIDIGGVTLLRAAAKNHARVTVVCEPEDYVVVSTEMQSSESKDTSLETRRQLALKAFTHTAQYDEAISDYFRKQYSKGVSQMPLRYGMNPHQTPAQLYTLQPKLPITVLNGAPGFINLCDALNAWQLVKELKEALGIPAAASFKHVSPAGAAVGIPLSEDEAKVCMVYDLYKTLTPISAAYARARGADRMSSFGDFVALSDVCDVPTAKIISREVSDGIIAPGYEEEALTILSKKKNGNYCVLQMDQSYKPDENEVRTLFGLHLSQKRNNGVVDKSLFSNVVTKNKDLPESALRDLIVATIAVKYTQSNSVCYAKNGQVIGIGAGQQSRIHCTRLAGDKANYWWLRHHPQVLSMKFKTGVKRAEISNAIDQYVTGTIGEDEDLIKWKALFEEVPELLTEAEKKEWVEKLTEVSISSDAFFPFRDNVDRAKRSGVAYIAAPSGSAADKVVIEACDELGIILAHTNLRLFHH

Experiment [1] has as its target T1, Bifunctional purine biosynthesis protein ATIC (Homo sapiens, UniProt P31939). Kind of experiment: Inhibition of AICARFT in human NCI-H460 cells assessed as increase in ZMP levels using regular folate media after 16 hrs by LC-MS method. The format is cell-based.
Experiment [2] addresses T1, Bifunctional purine biosynthesis protein ATIC. Kind of experiment: Inhibition of AICARFT in human MDA-MB-231 cells assessed as increase in ZMP levels using low folate media after 16 hrs by LC-MS method. The format is cell-based.
A short description of experiment [3]: Antiproliferative activity against human MDA-MB-231met2 cells by Cell Titer-Glo assay. Format: functional, cell-based.
In experiment [4] the target is T1, Bifunctional purine biosynthesis protein ATIC. Kind of experiment: Inhibition of AICARFT in human MDA-MB-231 cells assessed as increase in ZMP levels using regular folate media after 16 hrs by LC-MS method. Format: cell-based.
Experiment [5] shares this target. Kind of experiment: Inhibition of AICARFT in human NCI-H460 cells assessed as increase in ZMP levels using low folate media after 16 hrs by LC-MS method. The format is cell-based.

Broadly, the EC50 is the concentration at which the effect is half-maximal. As a reminder, the IC50 is the concentration that inhibits the measured activity by half. A lower IC50 goes with greater potency in that assay.

For `O=c1[nH]ccc2cc(F)c(NS(=O)(=O)c3ccc(N4CC[C@@H](O)C4)s3)cc12`, the figures for the concentration for a half-maximal effect (EC50) in experiment [1], in experiment [2] and in experiment [4] were 0.356 µM, 0.0076 µM and 0.073 µM, respectively. This compound yielded a 50% inhibitory concentration (IC50) in experiment [3] of 0.0076 µM.

Take `O=c1[nH]ccc2cc(F)c(NS(=O)(=O)c3ccc(N4CC[C@H](O)C4)s3)cc12`: the EC50 in experiment [5] came out at 0.025 µM.
